Assay results taken from US4382090A, “N-Thiazolylmethylthioalkyl-N'alkylamidines and related compounds” (Eli Lilly and Company, priority 1981, dated 1983).

Amino acid sequences for entries named in this document (tags omitted).
UniProt P25102, whole entry: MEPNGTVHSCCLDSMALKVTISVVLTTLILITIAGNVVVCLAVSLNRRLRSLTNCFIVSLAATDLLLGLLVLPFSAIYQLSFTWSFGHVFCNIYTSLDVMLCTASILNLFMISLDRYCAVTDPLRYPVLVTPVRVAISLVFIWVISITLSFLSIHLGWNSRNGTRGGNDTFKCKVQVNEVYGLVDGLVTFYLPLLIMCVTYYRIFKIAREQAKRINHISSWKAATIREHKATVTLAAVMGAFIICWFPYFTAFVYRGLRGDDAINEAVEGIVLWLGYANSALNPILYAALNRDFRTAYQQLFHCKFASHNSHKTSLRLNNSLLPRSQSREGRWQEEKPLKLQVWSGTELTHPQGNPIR

Tests used:
[1] = target: T1, H2 -receptors (Rattus norvegicus, UniProt P25102); test: H2-receptor blocking activity, isolated rat uterine horn (histamine relaxation of KCl-contracted uterus)
T1 construct: from tissue; host or cells: uterine horn of estrone-treated female albino rats
Procedure: The following assay for H2 -receptor blocking activity was employed. Female albino rats were treated with estrone 24 hours prior to the initiation of the experiment. The rats were sacrificed and the uterine horns removed therefrom and suspended at ambient temperatures in isolated organ baths containing De Jalon's solution. After equilibration, the uterine strips are exposed to 50 millimole aqueous potassium chloride, which produces a sustained contraction. When the uterus is so contracted, histamine produces a dose-dependent H2 -receptor-mediated relaxation. A control dose-response curve to histamine is constructed on each tissue. Following thorough washout of the histamine after obtaining the control dose-response curve, each antagonist (the compounds of this invention) is added for 30 minutes at a concentration of 10^-5 molar. The uterine strips are then contracted with aqueous potassium chloride in the presence of the antagonist and a second dose-response curve to histamine obtained. […] The dose ratio (DR) is calculated for each concentration of antagonist by dividing the ED50 of histamine in the presence of the competitive antagonist by the control ED50 for histamine. The dissociation constant (KB) of the antagonist is calculated from the dose-ratios by the following equation: […]

[2] = in vivo; conditions: rat
[3] = in vivo; conditions: mouse
[4] = system: acid secretion; conditions: dog

CNC(=C[N+](=O)[O-])NCCSCc1csc(CN(C)C)n1 [N-methyl-N'-2-(2-dimethylaminomethyl-4-thiazolylmethylthio)ethyl 2-nitro-1,1-ethenediamine]
affinity for the H2 -receptors relative to cimetidine ([1]; rat uterine strips, antagonist 10^-5 molar for 30 minutes): approximately 11 times
relative affinity versus cimetidine using a Schild plot ([1]; ratio of KB values, rat uterus): 10 to 1
LD50 ([2]; iv): > 300 mg/kg
LD50 ([2]; po): 1680 mg/kg
LD50 ([3]; iv): 265 mg/kg
LD50 ([3]; po): 1680 mg/kg
antisecretory activity relative to cimetidine, intravenous route ([4]; iv infusion over 30 minutes): about 6.5 times
antisecretory activity relative to cimetidine, orally ([4]; oral 75 min. prior to collection of gastric secretion): about 11.0 times
